From PMC5080452 (Bioorganic & Medicinal Chemistry, 2016) come the findings set out here.

The conditions of the data set: pig, PAMPA.

In the case of Norfloxazin, the “Pe, experimental value” was 0.9 ± 0.1 10^−6 cm s^−1.

As to Ofloxazin, the “Pe, experimental value” was 1.0 ± 0.1 10^−6 cm s^−1.
